# Measured values taken from patent publication US9321773B2, “Compounds” (Respivert Ltd, priority 2009, dated 2016).
# The chains behind the UniProt entries cited, without tags or fusion partners.
# UniProt P42336, whole entry: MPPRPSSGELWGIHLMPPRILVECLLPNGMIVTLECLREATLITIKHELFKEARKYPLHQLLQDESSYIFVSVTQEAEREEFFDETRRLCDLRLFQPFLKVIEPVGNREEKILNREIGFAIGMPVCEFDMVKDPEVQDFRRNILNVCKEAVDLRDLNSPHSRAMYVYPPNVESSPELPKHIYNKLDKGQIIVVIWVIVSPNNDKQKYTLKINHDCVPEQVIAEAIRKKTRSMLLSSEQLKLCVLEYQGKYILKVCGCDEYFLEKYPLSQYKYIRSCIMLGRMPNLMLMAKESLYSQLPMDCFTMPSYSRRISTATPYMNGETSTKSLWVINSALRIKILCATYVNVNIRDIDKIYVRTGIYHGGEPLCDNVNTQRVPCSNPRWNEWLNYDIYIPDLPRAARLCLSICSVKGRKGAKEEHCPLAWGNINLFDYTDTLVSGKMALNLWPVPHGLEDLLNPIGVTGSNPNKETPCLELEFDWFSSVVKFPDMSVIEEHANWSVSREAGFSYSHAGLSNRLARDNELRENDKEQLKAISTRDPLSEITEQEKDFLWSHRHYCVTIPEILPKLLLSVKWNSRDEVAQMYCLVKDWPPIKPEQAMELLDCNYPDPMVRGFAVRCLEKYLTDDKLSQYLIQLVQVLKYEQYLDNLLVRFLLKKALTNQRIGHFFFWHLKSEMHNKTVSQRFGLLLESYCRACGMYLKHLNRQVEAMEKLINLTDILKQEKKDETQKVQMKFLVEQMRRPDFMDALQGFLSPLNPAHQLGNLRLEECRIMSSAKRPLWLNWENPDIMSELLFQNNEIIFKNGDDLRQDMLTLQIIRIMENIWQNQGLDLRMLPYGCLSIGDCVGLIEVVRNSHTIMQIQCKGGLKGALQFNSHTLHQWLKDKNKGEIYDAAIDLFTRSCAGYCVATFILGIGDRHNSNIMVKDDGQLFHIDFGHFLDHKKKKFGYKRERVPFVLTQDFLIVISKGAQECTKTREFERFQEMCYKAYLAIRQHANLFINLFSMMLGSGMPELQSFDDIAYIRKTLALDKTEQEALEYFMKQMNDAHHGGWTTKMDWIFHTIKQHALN
# Molecular target: recombinant PI3 kinase α (Homo sapiens (Human), UniProt P42336)
# Assay: Enzyme Inhibition Assay (HTRF PI3K enzyme assay, TR-FRET)
# Assay type: biochemical
# From the text: PI3 kinases catalyse the phosphorylation of phosphatidylinositol 4,5-biphosphate (PIP2) to phosphatidylinositol 3,4,5-triphosphate (PIP3) in the presence of ATP and Mg^2+ ions. The PIP3 product can be detected by displacement of biotin-PIP3 from energy transfer complexes consisting of europium labelled anti-GST monoclonal antibody, a GST-tagged Pleckstrin homology (PH) domain, biotinylated PIP3 and streptavidin-allophycocyanin (APC) by the time-resolved fluorescence resonance energy transfer (TR-FRET) (HTRF® PI3K enzyme assay, Millipore). […] The PIP3 product formed by PI3K activity displaces biotin-PIP3 from the complex and results in a loss of energy transfer (decreasing signal).
# The compound to be tested was added, at the desired final concentrations, to a mixture of PIP2 substrate and recombinant PI3 kinase α, δ or γ enzymes (Millipore), and the mixture incubated for 2 hr at RT. […] A stopping solution containing biotinylated PIP3 and the detection mix containing the GST tagged GRP1 pleckstrin homology (PH) domain and fluorophores were then added and the mixture was incubated at RT for 15-18 hr, prior to detection in a fluorescence microplate reader (Varioskan® Flash, ThermoFisher Scientific).
compound,measurement,setting,value
"Nc1ncnc2c1c(-c1ccc(O)cc1)nn2Cc1nc2cccc(C#CCCCC(=O)O)c2c(=O)n1Cc1ccccc1Cl [Example 4, 6-(2-((4-Amino-3-(4-hydroxyphenyl)-1H-pyrazolo[3,4-d]pyrimidin-1-yl)methyl)-3-(2-chlorobenzyl)-4-oxo-3,4-dihydroquinazolin-5-yl)hex-5-ynoic acid]",IC50,"activity range, read-out: PI3 Kinase Inhibition IC50 values at stated Isozyme α",< 50 nM
same,IC50,read-out: PI3 Kinase Inhibition IC50 values at stated Isozyme (nM) α,17 nM

# Where two headings read alike, the source gives them in different places.
